According to patent publication EP4410284A1, “COMPOUND AND METHOD FOR THE TREATMENT OF ZELLWEGER SPECTRUM DISORDER” (Apteeus, priority 2023, dated 2024):
Read-outs that look alike come from different tables or passages of the source.

Assays:
GM16513 cells = format: cell-based; settings: 3 days, PI positive cells (dead cells)
PEX405 cells = format: cell-based; settings: 3 days, PI positive cells (dead cells)

Question: What does the source list for Oxamflatin?
Answer: % PI+ cells (GM16513 cells; 1.3 µM): 5%; % PI+ cells (GM16513 cells; 10 µM): 18%; % PI+ cells (PEX405 cells; 1.3 µM): 2%; % PI+ cells (PEX405 cells; 10 µM): 36%
